# Measured values from ChEMBL document CHEMBL6182842, “Progress in the development of macrophage migration inhibitory factor small-molecule inhibitors” (Eur J Med Chem, 2025).
# Protein sequences, listed by entry. Tags and fused reporters are not part of them. Lines headed by an entry give the natural chain unless they say otherwise; changes in a name come on top.
# UniProt P30046: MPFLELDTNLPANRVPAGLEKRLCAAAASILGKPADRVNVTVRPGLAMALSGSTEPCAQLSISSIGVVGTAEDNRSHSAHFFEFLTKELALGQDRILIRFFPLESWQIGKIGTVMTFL
# Biological target: D-dopachrome decarboxylase (Homo sapiens, UniProt P30046)
# Test: Inhibition of wild type human DDT tautomerase activity at 100 uM relative to control
smiles,measurement,value
O=C(O)c1cccc(-c2cc(C(=O)O)ncc2C(=O)O)c1,Ratio Ki,2
